Test results taken from patent US20180066015A1, “INHIBITORS OF GROWTH FACTOR ACTIVATION ENZYMES” (Washington University, published 2018).

T1: matriptase (Charles Craik, UCSF), recombinant (Homo sapiens (Human), UniProt Q9Y5Y6)
T1 sequence: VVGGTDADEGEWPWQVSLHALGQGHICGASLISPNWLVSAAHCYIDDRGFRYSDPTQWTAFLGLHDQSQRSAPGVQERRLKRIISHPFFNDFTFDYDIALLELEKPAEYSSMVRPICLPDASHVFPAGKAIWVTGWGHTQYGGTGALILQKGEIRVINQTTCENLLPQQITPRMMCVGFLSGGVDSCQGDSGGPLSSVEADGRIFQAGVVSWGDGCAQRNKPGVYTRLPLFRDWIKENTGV


target: T1, matriptase (Charles Craik, UCSF), …; assay: fluorogenic inhibition assay
Description: (§1) Inhibitors (11-pt serial dilutions, 0-20 μM final concentration in reaction) were serially diluted in DMSO (2% DMSO final concentration) and then mixed with either recombinant serine protease domain of HGFA [Z. Han, P. K. Harris, D. E. Jones, R. Chugani, T. Kim, M. Agarwal, W. Shen, S. A. Wildman, J. W. Janetka, Acs Med Chem Lett 2014, 5, 1219-1224], matriptase (Charles Craik, UCSF) or hepsin* (#4776-SE-010, R&D Systems, Minneapolis, Minn.) in black 384 well plates (Corning #3575. Corning, N.Y.). […] The final substrate concentrations for all assays were at the Kₘ for the respective enzymes. Changes in fluorescence (excitation at 380 nm and emission at 460 nm) were measured at room temperature over time in a Biotek Synergy 2 plate reader (Winnoski, Vt.). Using GraphPad Prism version 6.04 software program, (GraphPad Software, San Diego, Calif., www.graphpad.com), a four parameter curve fit was used to determine the inhibitor IC₅₀s from a plot of the mean reaction velocity versus the inhibitor concentration. The IC₅₀ values represent the average of three separate experimental determinations.

Binder | Ki
LLR (N-terminal acetyl; C-terminal ketothiazole (kt)) [Ac-LLR-kt] | 27.9 nM

target: T1, matriptase (Charles Craik, UCSF), …; assay: fluorogenic inhibition assay; remark: another data set of the same source
Description: as §1
Fluorescent inhibitor and chromogenic proteolytic assays were performed in general accordance with the procedures described in Example 4 for compounds prepared in Examples 5 and 6.

Binder | Ki
WFR (free N-terminus (H-); C-terminal ketobenzothiazole (kbt)) [H-WFR-kbt] | 1870 nM
WFR (free N-terminus (H-); D-Trp at position 1 (dW); C-terminal ketobenzothiazole (kbt)) [H-dWFR-kbt] | 135 nM
WLR (free N-terminus (H-); C-terminal ketobenzothiazole-COOH) [H-WLR-kbt-COOH] | 1210 nM

The remaining lines, values ahead:

Ki | Binder
364 nM | WLR (free N-terminus (H-); D-Trp at position 1 (dW); C-terminal ketobenzothiazole-COOH) [H-dWLR-kbt-COOH]
34.6 nM | WLR (free N-terminus (H-); D-Trp at position 1 (dW); C-terminal ketobenzothiazole (kbt)) [H-dWLR-kbt]
33.5 nM | WLR (free N-terminus (H-); C-terminal ketobenzothiazole (kbt)) [H-WLR-kbt]
3.3 nM | RLR (free N-terminus (H-); C-terminal ketobenzothiazole (kbt)) [H-RLR-kbt]
